Measured affinities in a library of Ab-14 light chain variants

Source: Li et al. 2023 (doi:10.1038/s41467-023-39022-2), MIT Lincoln Laboratory and A-Alpha Bio; data file from the FLAb repository.

Binding partner: SARS-CoV-2 spike HR2 peptide, sequence PDVDLGDISGINAS.

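The variants were designed computationally from a first round of random CDR variants and then made and measured. Their group label is 14L_GP_HC (GP: Gaussian process model; HC: hill climbing; a sequence that several methods proposed may carry one label only). The assay is AlphaSeq: two haploid yeast populations carry antibody and antigen on their surface. Mating (16 h, 30 °C) was followed by selection of diploids and sequencing of their barcodes. The ratio of observed to expected reads was calibrated, replicate by replicate, on BCL2-family standards whose Kd was known from biolayer interferometry. There are six technical replicates.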

Ab-14 is the parent antibody, in scFv form: VH, then a 15-residue (Gly4Ser)3 linker, then VL. The heavy chain is unchanged in all variants.
VH: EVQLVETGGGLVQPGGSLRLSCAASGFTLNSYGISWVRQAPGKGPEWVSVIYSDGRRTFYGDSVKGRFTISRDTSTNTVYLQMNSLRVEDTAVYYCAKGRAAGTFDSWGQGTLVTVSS
VL: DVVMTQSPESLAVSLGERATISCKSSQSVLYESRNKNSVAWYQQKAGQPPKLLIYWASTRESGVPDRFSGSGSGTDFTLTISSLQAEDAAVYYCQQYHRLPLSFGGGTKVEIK

The parent's light chain CDRs are KSSQSVLYESRNKNSVA, WASTRES, QQYHRLPLS; each variant's own CDRs replace them letter for letter.
Scale: log10 of Kd in nM, estimated from mating counts; low values are strong binders.
A pair that was not seen in that replicate is written "n.d."; this usually means weak binding, but a binder can also be missed.
The range of this assay differs from that of the first round, and the authors advise against merging the two.

| CDR-L1 | CDR-L2 | CDR-L3 | log10 Kd, replicates | control signals |
|---|---|---|---|---|
| HSSPSVLYESRNKNSVA | NASTRES | QQYHRLPLF | 0.06 -0.20 -0.09 -0.20 -0.05 -0.08 | 0 of 18 |
| KLQQSTLYESRNKNSVA | QASTRES | QQYHRLPLT | -0.17 -0.04 -0.03 0.02 -0.11 0.16 | 3 of 18 (1.81) |
| KSQQSVLYESRNGNNVA | HASTRED | QQYHRLPLS | 0.05 -0.85 -0.50 -0.44 -0.29 -0.07 | 0 of 18 |
| KMSQVYLYESRNKNSVA | GASTRES | QQYHRLPLS | 0.03 -0.16 -0.15 -0.42 0.04 0.17 | 0 of 18 |
| KAPQSVLYESRNKNSVA | HASTRED | QSYHRLPLS | 0.19 0.19 0.25 -0.08 0.18 0.11 | 0 of 18 |
| KLRQSTLYESRNKNSVA | YASTRES | QQYHRLPLS | 0.37 0.14 0.36 0.18 0.41 0.33 | 1 of 18 (2.91) |
| KSSNSYLYESENKNSVA | EASQRES | QQYHRLPLS | 0.56 0.57 0.64 0.51 0.48 0.61 | 1 of 18 (3.26) |
| KLYPSYLYESRNKNSVA | QASTRES | QQYHLLPLS | 0.36 0.10 -0.30 -0.06 0.06 -0.01 | 0 of 18 |
| KSLQSVLYESGNKNSVA | HASTRLD | QQYHRLPLS | 0.55 0.37 0.38 0.36 0.23 0.62 | 3 of 18 (3.51) |
| KLDQGTLYESRNKNSVA | GASTRES | QQYHRLPLS | 0.09 -0.07 -0.01 -0.22 -0.27 -0.23 | 1 of 18 (3.05) |
| KSSQSVLYESGNKNSVA | HASTRED | QQYHRLPLS | 0.40 0.18 0.24 0.33 0.44 0.66 | 2 of 18 (2.72) |
| KYYPSGLYESRNKNSVA | QASTRES | QQYHRLPLS | 0.41 0.03 0.56 0.23 0.20 0.21 | 2 of 18 (2.29) |
| KLPQSVLYESRNKNSVA | NASTRED | QSYHRLPLS | 0.04 0.22 -0.08 -0.35 -0.01 -0.09 | 0 of 18 |
| KMEQGVLYESRNKNSVA | NASVRES | QQYHRLPLS | -0.10 -0.38 -0.21 -0.44 -0.45 -0.35 | 1 of 18 (2.12) |
| KAVQSWLYESRNKNSVA | GASTRES | QQYHRLPLI | 0.27 0.85 0.17 0.67 0.48 0.52 | 0 of 18 |
| KSLQSVLYESRNKNSVA | NASTRED | QQYHQLPLS | 0.60 0.50 0.35 0.56 0.46 0.55 | 1 of 18 (2.74) |
| KLSISYLYESRNKNSVA | EASTRES | QQYHRMPLS | 0.08 0.10 0.30 0.09 0.25 0.27 | 0 of 18 |
| KQSQSVLYESVNKSSVA | DASTRES | QQYHRLPLS | 0.48 0.68 0.83 0.64 1.04 0.90 | 0 of 18 |
| FFSQSVLYESRTKNSVA | NASTRES | QQYHRLPLS | 0.55 -0.18 0.30 0.01 -0.04 -0.17 | 0 of 18 |
| KLSQSFLYESRNKNSVA | GASTRES | QNYHRLPLS | 0.23 0.12 0.02 0.08 0.03 0.04 | 1 of 18 (2.69) |
| HSSPSVYYESRNKNSVA | NASLRES | QQYHRLPLS | 0.62 0.44 0.22 0.11 0.42 0.34 | 4 of 18 (2.83) |
| KSSESYLEESRNKNSVA | EASTRES | QQYHRLPLS | 0.41 -0.24 -0.11 -0.07 -0.25 -0.40 | 1 of 18 (1.74) |
| LSSISYLYESPNKNSVA | EASTREE | QQYHRLPLS | 0.64 0.41 0.51 0.55 0.74 0.51 | 1 of 18 (2.53) |
| KMSQSVLMESRNCNSVA | DASTRES | QQYVRLPLS | 0.57 0.93 0.40 0.44 0.22 0.35 | 0 of 18 |
| KSGMGVLYESRNKNSVA | GASQRLS | QQYHRLPLS | 0.47 0.26 0.42 0.03 0.12 0.27 | 1 of 18 (2.75) |
| KSSQSVDMESRNKNSVA | DASTRES | QQYHRLPLS | -0.03 -0.12 -0.18 -0.25 -0.34 -0.09 | 1 of 18 (4.58) |
| KSSISVLYESNNKNSVA | HASTRED | QQYHRLPLS | 0.82 0.58 0.65 0.57 0.58 0.58 | 1 of 18 (3.51) |
| ILVQSWLYESRNKNSVA | GASTRES | QQYHRLPLI | n.d. 2.31 0.84 1.73 2.42 1.90 | 0 of 18 |
| KLSQSVLYESRNKNSVA | DASTRES | EQYHRLPSS | 0.87 1.30 0.86 1.44 0.57 1.18 | 2 of 18 (2.37) |
| KGSQVYLYESRNKNSVA | GASTRES | QQYHRLPLS | 0.11 0.08 -0.33 -0.43 -0.36 -0.02 | 0 of 18 |
| KSSISYLYESHNKNSVA | AASMRES | QQYHRLPLS | 0.35 0.51 0.45 0.20 0.26 0.34 | 2 of 18 (3.23) |
| KQSQSVLYETRNKNSVA | DASTRES | QQYHRLPLS | -0.07 -0.14 -0.19 -0.15 -0.09 0.02 | 2 of 18 (2.80) |
| KSPQGVLYESRNKNSVA | GASQRWS | QQYHRLPLS | 0.39 0.29 0.11 0.04 0.20 0.46 | 1 of 18 (2.79) |
| NLSQSDLYESRNKNSVA | GGNTRES | QQYHRLPLS | -0.41 -0.71 -0.85 -0.98 -0.81 -0.66 | 0 of 18 |
| KSLQSVLYESRDKNSVA | HASTRCD | QQYHRLPLS | 0.11 0.92 0.12 0.25 0.09 0.63 | 1 of 18 (1.52) |
| KSQQGVLYESRNKNSVA | GASLRES | QQYHRLPLS | 0.14 0.24 0.26 -0.11 0.10 0.30 | 2 of 18 (3.44) |
| KVSQSVLYESRNKNSVA | MASTRES | QQYHRLPLS | 0.37 0.10 0.12 -0.06 0.08 0.11 | 0 of 18 |
| KVSQSWLYESRNFWSVA | GASTRES | QQYHRLPLS | 2.79 n.d. 2.22 0.80 2.05 1.00 | 0 of 18 |
| KSSQSVLGESRNKNSVA | DASDRES | QQYHRLPLS | 0.35 0.46 0.48 0.89 0.65 0.46 | 0 of 18 |
| KVYPSHLYESRNKNSVA | QASTRES | QQYHRLPLS | 0.21 0.49 0.72 0.09 0.37 0.49 | 1 of 18 (1.97) |
| KFSQSVLYESRTKNSVA | NASTRES | QAYHRLPLS | 0.26 0.26 0.30 0.10 0.13 0.09 | 1 of 18 (3.52) |
| KSLQSVLYESRNKNSVA | NASTRED | QQYGRLPLS | 2.14 1.20 3.53 1.55 1.58 2.14 | 0 of 18 |
| KSSDSVLYESRNKNSVA | DASTRSS | QQYHRLPLS | 0.71 1.25 0.78 1.06 1.14 1.42 | 0 of 18 |
| KLRQSTLYESRNQNSVA | AASTRES | QQYHRLPLS | 0.05 0.20 0.10 -0.11 0.18 0.20 | 0 of 18 |
| KHSQSWIYESRNKNSVA | GASTRES | QQYHRLPLS | 0.08 0.15 -0.08 -0.15 -0.22 -0.11 | 0 of 18 |
| KFSQEVLYESRTKNSVA | NASTRES | QQYHRLPLS | -0.12 -0.17 -0.29 -0.50 -0.44 -0.07 | 0 of 18 |
| KSSWLVLFESRNKNSVA | DASTRSS | QQYHRLPLS | 0.61 1.11 0.84 0.93 0.71 0.77 | 1 of 18 (2.91) |
| KSSISYLYESGNKNSVA | QASTRES | QQYHRLPLS | 1.03 0.39 0.29 0.06 0.04 0.44 | 0 of 18 |
| KSSESDLYESRNKNSVA | EASTREQ | QQYHRLPLS | 0.26 -0.10 0.20 -0.03 0.23 0.26 | 1 of 18 (3.76) |
| KSSISYLYESVNKNSVA | EASTRES | QQYHRLPLS | 0.83 0.29 0.42 0.36 0.41 0.66 | 2 of 18 (2.94) |

The first 5 entries again:

CDR-L1	CDR-L2	CDR-L3	log10 Kd, replicates	control signals
HSSPSVLYESRNKNSVA	NASTRES	QQYHRLPLF	0.06 -0.20 -0.09 -0.20 -0.05 -0.08	0 of 18
KLQQSTLYESRNKNSVA	QASTRES	QQYHRLPLT	-0.17 -0.04 -0.03 0.02 -0.11 0.16	3 of 18 (1.81)
KSQQSVLYESRNGNNVA	HASTRED	QQYHRLPLS	0.05 -0.85 -0.50 -0.44 -0.29 -0.07	0 of 18
KMSQVYLYESRNKNSVA	GASTRES	QQYHRLPLS	0.03 -0.16 -0.15 -0.42 0.04 0.17	0 of 18
KAPQSVLYESRNKNSVA	HASTRED	QSYHRLPLS	0.19 0.19 0.25 -0.08 0.18 0.11	0 of 18

The parent sequence was in this pool as ten entries: three were never detected, three once, and four in most replicates, with averages from 0.34 to 2.37.
The authors averaged sequences with at least three values out of six and counted those with two or fewer as poor binders.
Nonspecific signal, from three strains lacking the peptide, appeared in 4% of pairings of all light chain designs, centred on 2.64 (5% of these signals below 1.59); values are not corrected for it. For each scFv, signals with the empty controls are counted beside the result, with their mean in brackets.